The subject of series [1] is mice infected with Plasmodium berghei. Particulars: orally 3 mg/kg/day (QD), four consecutive days, P. berghei infected mice; cited from earlier work.
In a further series the test system is NOD/SCID mice. The following applies: 5 mg/kg IP every other day, three times per week, 24 days.

On to Brusatol [reference compound], for which the mice that died result in series [1] was “four out of five”. For the same substance, in the series with NOD/SCID mice, the “mice survived (of 4 per group)” value was “three”.

The values above are taken from publication PMC7704689 (Bioorganic & medicinal chemistry letters, 2020).
